{
  "source": "paper PMC4698308",
  "about": "“A new amino acid substitution (Ala-205-Phe) in acetolactate synthase (ALS) confers broad spectrum resistance to ALS-inhibiting herbicides” (Planta, 2015)",
  "key": {"[1]": {"test_system": "recombinant Arabidopsis thaliana ALS variant A205V", "type": "biochemical", "conditions": "IC50 mutant divided by IC50 sensitive ALS; max inhibitor concentration 1.00 × 10^−04 M", "method": "(§1) Effects of SNPs identified in sequencing analysis on ALS activity were studied using A. thaliana. The ALS gene from A. thaliana and derivatives thereof were de novo synthesized and subcloned into pET-24d(+) (Life Technologies. Grand Island, NY, USA) using NcoI and XhoI restriction sites. Protein constructs contained an 85 amino acid N-terminal deletion (chloroplast transit peptide) and the addition of an N-terminal Hexa-histidine tag to facilitate purification.\n(§2) Lysis was performed by at least two passes through a fluidizer, followed by centrifuging at 80000×g for 30 min at 4 °C. […] Fractions containing ALS protein were pooled and stored at −20 °C.\n(§3) Inhibitors, purchased from Sigma as Pestanal standards (Sigma-Aldrich, Deisenhofen, Germany), were dissolved in DMSO and added to the reaction mixture. Inhibitors evaluated included imidazolinone, sulfonylurea, triazolopyrimidines, sulfonylamino-carbonyl- triazolinones, and pyrimidinyl (thio) benzoate herbicides. The reaction mixture was incubated at 30 °C for 60 min and stopped with 70 µl of H2SO4 (3 M). The reaction was then heated to 56 °C for 15 min to convert acetolactate into acetoin. […] For each inhibitor, resistance factors were calculated by dividing IC50 values for mutant and sensitive ALS."}, "[2]": {"test_system": "recombinant Arabidopsis thaliana ALS variant W574L", "type": "biochemical", "conditions": "IC50 mutant divided by IC50 sensitive ALS; max inhibitor concentration 1.00 × 10^−04 M", "method": "as §1, §2, §3"}},
  "data": [
    {"substance": "Bensulfuron", "values": [
      {"measurement": "Resistance factor A205V", "setting": "[1]", "result": 54},
      {"measurement": "Resistance factor W574L", "setting": "[2]", "result": 642}
    ]}
  ]
}
